Amino acid sequences for entries named in this document (tags omitted). A change or cut given only in a name is not applied to a line headed by its entry.
UniProt P00915: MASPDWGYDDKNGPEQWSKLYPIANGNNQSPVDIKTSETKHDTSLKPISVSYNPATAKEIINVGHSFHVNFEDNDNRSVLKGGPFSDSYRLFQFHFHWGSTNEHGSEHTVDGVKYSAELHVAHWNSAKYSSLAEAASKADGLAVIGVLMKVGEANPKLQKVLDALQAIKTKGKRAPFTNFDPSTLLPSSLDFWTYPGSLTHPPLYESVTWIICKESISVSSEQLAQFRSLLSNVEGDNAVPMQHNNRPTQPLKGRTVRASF

In ChEMBL document CHEMBL1138690, “Carbonic anhydrase inhibitors. Inhibition of the newly isolated murine isozyme XIII with anions” (Bioorg Med Chem Lett, 2004):

Target: Carbonic anhydrase 1 (Homo sapiens, UniProt P00915)

F [FLUORIDE ION]
Ki: > 300 mM
